Earlier results on four compounds are cited in patent US20040198789A1, “Lercanidipine/ARB/diuretic therapeutic combinations” (Recordati Ireland Limited, priority 2003, published 2004).

The target of this data set is AT1 receptor (Homo sapiens, UniProt P30556). Particulars: cited from earlier work.

Take `CCCc1nc2c(C)cc(-c3nc4ccccc4n3C)cc2n1Cc1ccc(-c2ccccc2C(=O)O)cc1` [Telmisartan, 4′-[1,4′-dimethyl-2[-propyl[2,6′-bi-1H-benzimidazol]-1′-yl)methyl]-[1,1′-biphenyl]-2-carboxylic acid]: the “greater affinity for AT1 receptor compared to AT2 receptor” value was over 3000 fold.
As to `CCCCc1nc(Cl)c(CO)n1Cc1ccc(-c2ccccc2-c2nnn[nH]2)cc1.[K]` [losartan, 2-butyl-4-chloro-1-[p-(o-1H-tetrazol-5-ylphenyl)-benzyl]imidazole-5-methanol monopotassium salt], the “greater affinity for AT1 receptor compared to AT2 receptor” value was “about 1000 fold”.
Turning to `CCCc1nc(C(C)(C)O)c(C(=O)O)n1Cc1ccc(-c2ccccc2-c2nnn[nH]2)cc1` [olmesartan, 4-(1-hydroxy-1-methylethyl)-2-propyl-1-[p-(o-1H-tetrazol-5-ylphenyl)benzyl]imidazole-5-carboxylic acid], the “greater affinity for AT1 receptor compared to AT2 receptor” value is on record as “more than 12,500 fold”.
As to `CCCCC(=O)N(Cc1ccc(-c2ccccc2-c2nnn[nH]2)cc1)[C@H](C(=O)O)C(C)C` [valsartan, N-(1-oxopentyl)-N-[[2′-(1H-tetrazol-5-yl)[1,1′-biphenyl]-4-yl]methyl]-L-valine], the “greater affinity for AT1 receptor compared to AT2 receptor” value is on record as “about 20,000 fold”.
